{
  "sequences": {"note": "By UniProt entry, the sequences of proteins in these tests, tags left out. Where a name states a change or a piece, a line headed by the entry shows the natural chain unless it says otherwise.", "UniProt Q07010": "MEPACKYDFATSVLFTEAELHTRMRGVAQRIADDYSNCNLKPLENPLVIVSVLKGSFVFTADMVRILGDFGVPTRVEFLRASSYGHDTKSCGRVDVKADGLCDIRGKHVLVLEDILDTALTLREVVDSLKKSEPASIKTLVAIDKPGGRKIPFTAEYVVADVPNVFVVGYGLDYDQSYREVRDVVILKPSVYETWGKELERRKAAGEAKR"},
  "source": "paper PMC5081515",
  "about": "(Scientific Reports, 2016)",
  "molecular_target": "TbrHGPRT (Trypanosoma brucei brucei, UniProt Q07010)",
  "assay": "Kinetic constants of naturally occurring substrates, continuous spectrophotometric assay",
  "type": "biochemical",
  "set-up": "made in house; host or cells: E. coli BL-21 (DE3), pET-22b",
  "conditions": "for kcat: 0.03 M phosphate buffer, […] MgCl2, 1 mM DTT, pH 7.4, 25 °C",
  "protocol": "One unit of activity is defined as the number of μmol of purine base converted to its mononucleotide product per minute.\nThe kinetic constants were calculated using GraphPad Prism 6.0.",
  "data": [
    {"smiles": "Nc1nc2nc[nH]c2c(=O)[nH]1", "note": "[Guanine]", "values": [
      {"measurement": "kcat", "result": "23.8 ± 0.3", "unit": "s⁻¹"},
      {"measurement": "kcat", "setting": "listed as guanine", "result": 23.8, "unit": "s⁻¹"},
      {"measurement": "kcat/Km, fold higher than that of hypoxanthine", "setting": "TbrHGPRT", "result": 3.3, "unit": "fold"}
    ]}
  ]
}
